This is a sample that favours compounds with a hit; in the whole collection about 0.92% have one here.
GALK inhibitor – blocks human galactokinase activity | 270,000 tested, 0.007% active | P51570 | Potency, µM (top dose mostly 57.5 µM), actives largely listed as inhibitors | AID 1868 | Purified GALK, Kinase-Glo residual ATP luminescence
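Galactose (100 uM) and ATP (35 uM) were turned over by 5 nM GALK for 1 h at RT. Kinase-Glo Plus then converted the remaining ATP into a luminescent signal.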
B2AR arrestin – beta2AR (human) beta-arrestin recruitment activity. beta-arrestin recruitment to beta2AR, cell-based reporter. Potency, µM (series often up to 46.1 µM), hits mostly activators. 330,000 tested, 0.02% active. AID 492947; also: nearly all actives have a fitted effect of over 65% in size
Giardia kill – Giardia lamblia killing. AID 540267. activity change, % at 7.66 µM, hits read low. Giardia lamblia trophozoite viability. 340,000 tested, 0.15% active; in the data active = activity change below about -80%; inconclusive = between about -30% and that limit;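 also: parasites exposed to compound for two days anaerobically before the ATP read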
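Each well holds 100 Giardia trophozoites and compound. After two days (48 hrs) at 37 deg C in anaerobic conditions, ATP is quantified by luminescence.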
FBPA coupling cs – inhibits coupling enzyme system, counter-screen for aldolase hits. 290,000 tested, 0.67% active. coupling enzyme system counterscreen, AmpLite Red fluorescence. AID 2472. activity change, negative = inhibition, % at 58.2 µM, hits read low; in the data active = activity change below about -30%
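First, compound is pin-transferred into glyceraldehyde-3-phosphate coupling-enzyme reagent at 57.5 uM final and held 10 min at RT. Next, substrate, coupling system and AmpLite Red are added. After 20 min RT, fluorescence (525/598 nm) is read.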
miR-21 reporter – miR-21 reporter, rising signal; HeLa miR-21 FLuc reporter, luciferase, 48 h; Potency, µM (titrated, usually from 38.3 µM); AID 2288; 340,000 tested, under 10 active; active = well fitted rising curve with a large enough effect; inconclusive = small, poorly fitted or top-dose-only effect; inactive = no such curve, though single readings can be large or run the other way;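 further: miR-21 action dims this reporter so a rising signal means less miR-21 action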
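Luminescence from a firefly luciferase reporter carrying a miR-21 binding site downstream, stably expressed under a CMV promoter in HeLa cells that make miR-21 endogenously, reports miRNA modulation after 48 h compound exposure up to approximately 40uM final.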
uPA surface inh – cell surface uPA generation inhibition | Potency, µM (series often up to 38.3 µM), most hits filed as inhibitors | 330,000 tested, 0.31% active | cell surface uPA generation assay, qHTS; active = well fitted inhibition curve with a large enough effect; inconclusive = small, poorly fitted or top-dose-only effect; inactive = no such curve, though single readings can be large or run the other way; tested in mouse RAW 264.7 cells; also: nearly all actives have a fitted effect of over 55% in size
A number is an active result; . = inactive; ? = inconclusive; / = no result. Unless noted, calls follow the shape of the dose curve; as a rule, active = well fitted curve in the direction sought with a large enough effect; inconclusive = small, poorly fitted or top-dose-only effect, or another doubt; inactive = no such curve, though single readings can be large; an effect the other way counts as inactive or inconclusive.

SMILES | GALK inhibitor | B2AR arrestin | Giardia kill | FBPA coupling cs | miR-21 reporter | uPA surface inh
O=C(Nc1nc2c(F)cc(F)cc2s1)c1ccc([N+](=O)[O-])o1 | / | . | -86 | . | . | .
COc1ccc2cc3cc(C(=O)Nc4ccccc4N4CCN(C)CC4)oc3nc2c1 | . | . | -87 | . | . | .
COC(=O)c1cc(C)nc2c1C(=O)C(=O)C=C2N1CCOCC1 | 7.1µM | . | . | -79 | ? | .
CC(C)(C)c1cc(CCC(=O)NCCc2ccccn2)cc(C(C)(C)C)c1O | . | . | . | . | . | .
CCCNC(=O)CCc1cc(C(C)(C)C)c(O)c(C(C)(C)C)c1 | . | . | . | . | . | 11µM
COc1ccc(C2=Nn3c(nnc3-c3cccc(OC)c3OC)SC2)cc1 | / | / | / | . | / | /
CCOc1ccc(-c2ccc(SC)nn2)cc1 | . | . | -87 | . | . | .
O=c1cc(-c2ccccc2)oc2c1ccc1ccccc12 | / | / | / | . | / | /
O=c1cc(-c2ccc(O)c(O)c2)oc2c1ccc1ccccc12 | / | . | . | / | / | 2.5µM
COc1ccc(/C=C2\SC(=O)N(CCNC(=O)C3=COCCO3)C2=O)cc1 | / | . | . | / | / | 7.1µM
O=C(NCCN1C(=O)S/C(=C\c2ccc(Cl)cc2Cl)C1=O)C1=COCCO1 | / | . | . | / | / | ?
O=C(NCCN1C(=O)S/C(=C\c2ccccc2Cl)C1=O)C1=COCCO1 | / | . | . | / | / | 7.9µM
O=C(c1ccccc1Cl)N(C(=O)c1ccccc1Cl)c1nccc(-c2cccs2)n1 | . | . | . | -42 | . | .
O=C(Nc1nccc(-c2cccs2)n1)c1ccccc1Cl | . | . | . | . | . | .
O=c1[nH]c2ccc(NCc3ccc(-c4ccc(F)cc4)o3)cc2[nH]1 | / | / | / | / | . | /
O=[N+]([O-])c1ccccc1S(=O)(=O)Oc1ccc(/C=N/n2cnnc2)cc1 | . | . | -81 | . | . | .
CCCCc1nc2c(c3c1C[C@H](C)OC3)CN(S(=O)(=O)c1ccc(C)cc1)CC2 | / | / | / | . | / | /
C/C(Cn1cnc([N+](=O)[O-])n1)=N\NC(=O)c1ccncc1 | / | . | . | . | . | .
C/C(Cn1nnc([N+](=O)[O-])n1)=N\NC(=O)c1ccncc1 | . | . | . | -40 | ? | .
C/C(Cn1nnc([N+](=O)[O-])n1)=N\NC(=O)c1ccc(C)cc1 | . | . | . | -38 | . | .
CNC(=O)c1ccc(Nc2nnc(-c3ccc(C)c(S(=O)(=O)N4CCOCC4)c3)c3ccccc23)cc1 | / | / | / | / | . | /
CCOc1ccccc1-c1nnc2n1N=C(c1cc(OC)cc(OC)c1)CS2 | / | / | / | . | / | /
O=C(CNC1CCCCCC1)Nc1ccccc1N1CCCCC1 | / | . | . | . | . | .
O=C(CNCCC1=CCCCC1)Nc1ccccc1N1CCCCC1 | . | . | . | -42 | . | /
CC(=O)N1CCc2c(sc(NC(=O)c3ccc4c(c3)OCCO4)c2C#N)C1 | . | . | . | . | . | 7.9µM
SMILES | GALK inhibitor | B2AR arrestin | Giardia kill | FBPA coupling cs | miR-21 reporter | uPA surface inh
CC(C)n1cc(/C=C/c2cc[n+](C)cc2)c2ccccc21 | . | . | . | -33 | ? | .
CCn1cc(/C=C/c2cc[n+](C)cc2)c2ccccc21 | . | . | . | . | ? | .
C=CCn1cc(/C=C/c2cc[n+](C)cc2)c2ccccc21 | . | . | . | . | ? | 10µM
Cc1ccccc1/C=C/c1cc[n+](C)cc1 | . | . | . | . | . | ?
COc1ccc(/C=C/C(=O)CC(=O)/C=C/c2cccc(O)c2OC)cc1O | / | / | / | . | / | /
COc1ccc(N2C(=O)CS/C2=N\C(=S)Nc2ccccc2)cc1 | . | 5.6µM | . | . | . | .
COc1ccc(CN(C(=S)Nc2ccccc2)C2CC(=O)N(c3ccc(F)cc3)C2=O)cc1 (stereo unspecified) | . | . | . | . | . | .
COc1cccc(NC(=S)N(CCc2c(C)[nH]c3ccc(C)cc23)Cc2cccs2)c1 | / | . | . | . | . | .
COc1ccc2[nH]c(C)c(CCN(Cc3cccs3)C(=S)Nc3cccc(F)c3)c2c1 | . | . | . | -43 | . | ?
CC1CCc2c(sc(NC(=O)/C=C/c3cccs3)c2C(=O)O)C1 (stereo unspecified) | . | . | . | . | . | 10µM
CC1CCc2c(sc(NC(=O)c3ccco3)c2C(=O)O)C1 (stereo unspecified) | . | . | . | . | . | .
COc1ccccc1C(=O)Nc1nnc(SCc2cc(=O)c3ccccc3[nH]2)s1 | / | / | / | / | . | /
C=C(C)CN(CC)c1nc(N)c(C#N)c(CC#N)c1C#N | . | . | . | . | . | .
CCCCN(CC)c1nc(N)c(C#N)c(CC#N)c1C#N | . | . | . | -35 | . | .
CCCOc1cc2c(C#N)c(N3CCCC3)nc(N)c2c(N)n1 | / | / | . | / | / | .
CCCCN(CC)c1nc(N)c2c(N)nc(OCC)cc2c1C#N | . | . | . | -48 | . | .
COc1ccc(NC(=O)Cn2cc(C(=O)c3ccccc3OC)c(=O)c3ccc(C)nc32)cc1OC | / | / | / | / | . | /
CCCOc1ccccc1C(=O)Nc1nc2c(s1)CCCC2 | / | / | / | / | . | /
COc1ccc(C2/C=C\CN(CC(C)C)C(C)C(=O)N2Cc2ccc(F)cc2)cc1 (stereo unspecified) | / | / | . | . | / | /
O=c1c2cc(NC(=S)N3CCCC3)ccc2nc2n1CCCCC2 | . | . | . | . | . | .
O=C(/C=C/c1ccco1)Nc1ccc2nc3n(c(=O)c2c1)CCCC3 | . | . | . | . | . | 2µM
COC(=O)c1ccc(-c2noc(CN(C)CCC3CCCCO3)n2)cc1 (stereo unspecified) | . | . | . | -55 | ? | .
COc1ccc(-c2noc(CN(C)CCC3CCCCO3)n2)cc1 (stereo unspecified) | . | . | . | . | . | .
Cn1c(COc2ccc(Br)cc2)nnc1SC1CCc2ccccc2C1=O (stereo unspecified) | . | . | . | -57 | . | .
Cn1c(COc2ccccc2)nnc1SCCSc1nnc(COc2ccccc2)n1C | . | . | . | . | . | .
SMILES | GALK inhibitor | B2AR arrestin | Giardia kill | FBPA coupling cs | miR-21 reporter | uPA surface inh
C=Cc1ccc(Cn2c(C(=O)O)c(CNCc3ccccc3)c3ccc(C)cc32)cc1 | / | / | . | / | ? | /
COc1cc2c(cc1OC)-c1cc3ccc4c(c3c[n+]1CC2)OCO4 | / | . | . | -44 | . | .
COc1cc(CNc2ccc3[nH]c(=O)[nH]c3c2)ccc1OCC(=O)NC(C)(C)C | . | . | . | -30 | . | .
COc1ccc(N(CC(=O)NCCc2cccc(C)c2)S(=O)(=O)c2c(C)nn(C)c2C)cc1 | / | / | / | / | . | /
Cc1nnc(N2C(=O)c3cccc4c([N+](=O)[O-])ccc(c34)C2=O)s1 | . | . | . | . | . | 10µM
CCc1cccc(C)c1NC(=O)Cn1ncc2c3ccccc3n(Cc3ccccc3)c2c1=O | / | / | / | / | . | /
Cc1c(C(=O)N/N=C/c2ccc(-c3ccccc3[N+](=O)[O-])o2)sc(N)c1C#N | . | . | . | -33 | . | .

Screening results as filed in PubChem.
